# Counter-ions that a name gives are not always drawn.
# How the values were obtained:
# [1] = test system: primary mouse embryonic fibroblasts (MEF); assay: ROS production in MEF (CM-H2DCFDA); format: cell-based; details: drug alone (L-methamphetamine and 4-hydroxy-D-methamphetamine at 1 mM)
# [2] = test system: primary mouse embryonic fibroblasts (MEF); format: cell-based; details: NF-κB inhibitors with methamphetamine
SMILES,ROS formation [1],effect of methamphetamine on de novo ceramide (d18:1/16:0) biosynthesis [2]
"CN[C@@H](C)Cc1ccccc1.Cl [L-methamphetamine, L-methamphetamine hydrochloride]",little or no effect,
"CN[C@@H](C)Cc1ccccc1 [methamphetamine, S(+)-methylamphetamine HCl]",concentration-dependent increase,
Nc1ccc(O)c(C(=O)O)c1 [5′-aminosalicyclic acid],,able to inhibit
Cc1ccc(NCCCc2ccccc2)c(N)c1 [JSH-23],,able to inhibit
O=C1CCC(N2C(=O)c3ccccc3C2=O)C(=O)N1 (stereo not drawn) [thalidomide],,able to inhibit
CN[C@@H](C)Cc1ccc(O)cc1,little or no effect,
